In this data set the target is Human Aryl Hydrocarbon Receptor (AhR) (Homo sapiens, UniProt P35869). In words: AHR antagonist reporter assay in human cell line (INDIGO AhR Reporter Assay System, kynurenic acid activated). The procedure: The AhR reporter assay was performed following the protocol of the Human Aryl Hydrocarbon Receptor (AhR) Reporter Assay System (INDIGO Bioscience, #1B06001-32). AhR Reporter Cell was thawed and pre-incubated in Cell Recovery Medium (CRM) for 6 hours. The media was then removed and the cells were incubated with Compound Screening Medium (CSM) supplemented with 200 μM kynurenic acid for 24 hours in the absence (negative control) or presence of increasing concentrations of test compounds (typical dilution: […], 3.2 nM, 16 nM, 80 nM, 400 nM, 2 μM, 10 μM in duplicates). For positive inhibition control, cells activated with 200 μM kynurenic acid were incubated in the presence of literature AHR antagonists; alternatively un-activated cells were used as positive inhibition control. Following 24 hours incubation, the media was removed and Luciferase Detection Reagent (LDR) added. The firefly luciferase activity was quantified using a plate reader. Results were normalized by positive and negative controls.

Protein sequences, listed by entry. Tags and fused reporters are not part of them. Residues count along the entry.
UniProt P35869, 11-848 limits assumed: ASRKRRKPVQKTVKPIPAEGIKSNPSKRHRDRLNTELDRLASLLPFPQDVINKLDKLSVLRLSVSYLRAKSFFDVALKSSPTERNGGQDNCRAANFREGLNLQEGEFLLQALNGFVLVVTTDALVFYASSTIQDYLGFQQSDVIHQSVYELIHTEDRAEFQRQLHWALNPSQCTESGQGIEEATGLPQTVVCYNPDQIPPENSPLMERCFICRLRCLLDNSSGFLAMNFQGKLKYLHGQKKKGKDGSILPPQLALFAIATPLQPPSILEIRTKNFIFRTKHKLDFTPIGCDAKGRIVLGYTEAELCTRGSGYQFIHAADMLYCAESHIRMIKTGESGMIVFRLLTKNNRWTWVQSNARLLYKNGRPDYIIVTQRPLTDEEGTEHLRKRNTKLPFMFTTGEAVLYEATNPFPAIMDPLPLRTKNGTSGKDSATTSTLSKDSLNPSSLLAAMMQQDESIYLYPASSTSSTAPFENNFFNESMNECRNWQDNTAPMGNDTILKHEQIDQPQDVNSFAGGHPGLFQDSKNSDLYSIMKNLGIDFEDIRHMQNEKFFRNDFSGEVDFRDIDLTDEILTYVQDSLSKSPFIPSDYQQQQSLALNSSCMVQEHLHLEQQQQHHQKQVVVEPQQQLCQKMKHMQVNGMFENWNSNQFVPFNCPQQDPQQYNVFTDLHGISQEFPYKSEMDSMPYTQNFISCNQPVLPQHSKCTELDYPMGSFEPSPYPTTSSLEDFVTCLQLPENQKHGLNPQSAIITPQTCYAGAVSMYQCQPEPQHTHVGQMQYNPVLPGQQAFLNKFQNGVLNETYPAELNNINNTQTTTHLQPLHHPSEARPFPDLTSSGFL

The structures appear in SMILES notation.

In the case of `COC[C@H](C)NC(=O)c1cc(-c2ccc(Cl)cc2)nn(-c2cn[nH]c2)c1=O` [Compound 62], the “AhR Reporter Assay KA Antagonist Mode: IC50 (nM)” value (200 μM kynurenic acid, 24 hours, luciferase) is on record as “C (C <100 nM)”.
Take `O=C(NC1CCNC1=O)c1cc(-c2ccc(Cl)cc2)nn(-c2cccc(F)c2)c1=O` (centres unmarked): the IC50 – broadly, the concentration that inhibits the measured activity by half – is under 0.1 µM.

The values are drawn from patent publication US20240351988A1, “ARYL HYDROCARBON RECEPTOR MODULATORS AND THEIR USE IN THE TREATMENT OF DISEASES AND DISORDERS” (Allianthera (Suzhou) Biopharmaceutical Co., Ltd., priority 2021, published 2024).
